Source: patent publication US20130338152A1, “FLUOROPHENYL BICYCLIC HETEROARYL COMPOUNDS” (IRM LLC, priority 2011, published 2013)

By UniProt entry, the sequences of proteins in these tests, tags left out. Residues count along the entry.
UniProt P08069, 31-1367: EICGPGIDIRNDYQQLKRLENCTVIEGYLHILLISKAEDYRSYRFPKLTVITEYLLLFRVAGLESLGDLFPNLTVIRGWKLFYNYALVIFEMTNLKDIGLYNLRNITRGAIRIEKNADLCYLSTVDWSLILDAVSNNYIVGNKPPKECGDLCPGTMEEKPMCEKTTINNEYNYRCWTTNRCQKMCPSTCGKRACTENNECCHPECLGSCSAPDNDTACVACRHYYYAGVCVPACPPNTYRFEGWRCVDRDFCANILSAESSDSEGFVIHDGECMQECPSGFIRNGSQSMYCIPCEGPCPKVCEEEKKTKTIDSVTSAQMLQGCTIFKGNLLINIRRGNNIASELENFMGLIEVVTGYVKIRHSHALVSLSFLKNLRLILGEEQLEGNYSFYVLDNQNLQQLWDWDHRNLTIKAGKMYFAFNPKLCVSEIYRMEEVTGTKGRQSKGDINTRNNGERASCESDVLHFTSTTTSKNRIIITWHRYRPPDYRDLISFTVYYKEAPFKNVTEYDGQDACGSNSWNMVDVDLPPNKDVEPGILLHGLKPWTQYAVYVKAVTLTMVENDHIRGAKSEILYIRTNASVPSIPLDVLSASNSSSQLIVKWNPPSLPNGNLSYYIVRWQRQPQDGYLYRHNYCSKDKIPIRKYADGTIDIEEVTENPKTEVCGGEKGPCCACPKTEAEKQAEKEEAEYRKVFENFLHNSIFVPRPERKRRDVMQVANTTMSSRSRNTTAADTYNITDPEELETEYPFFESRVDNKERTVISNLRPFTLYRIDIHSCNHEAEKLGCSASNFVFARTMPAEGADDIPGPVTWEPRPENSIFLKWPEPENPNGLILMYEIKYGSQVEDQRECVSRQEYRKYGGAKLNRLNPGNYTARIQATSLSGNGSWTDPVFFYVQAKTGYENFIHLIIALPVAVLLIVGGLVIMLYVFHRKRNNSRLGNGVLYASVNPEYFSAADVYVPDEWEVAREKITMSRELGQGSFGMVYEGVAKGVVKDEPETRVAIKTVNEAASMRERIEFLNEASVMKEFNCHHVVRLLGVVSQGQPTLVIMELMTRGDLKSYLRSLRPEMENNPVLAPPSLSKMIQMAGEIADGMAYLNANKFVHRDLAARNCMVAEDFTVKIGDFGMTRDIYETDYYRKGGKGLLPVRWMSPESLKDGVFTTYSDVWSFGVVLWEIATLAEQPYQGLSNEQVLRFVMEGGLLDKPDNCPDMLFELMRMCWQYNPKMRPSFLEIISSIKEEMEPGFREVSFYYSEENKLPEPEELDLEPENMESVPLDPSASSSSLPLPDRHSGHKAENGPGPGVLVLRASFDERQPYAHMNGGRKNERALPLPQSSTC

Target: IGF1R (Homo sapiens, UniProt P08069)
Test: Cellular IGF-1R assay: inhibition of IGF1R phosphorylation in Hek293 cells, capture ELISA (MSD)
Type: cell-based
Set-up: expressed in transfected cells; host or cells: Hek293 (Hek293-IGF1R)
Details: IGF-triggered receptor phosphorylation
Method: IVa. Cellular IGF-1R and InsR Assays
Compound-mediated inhibition of IGF1R and INSR phosphorylation in Hek293 cells transduced with the corresponding receptors is assessed in a capture ELISA format using the MSD (Meso Scale Discovery) platform. Briefly, 30′000 cells washed and diluted in starvation medium (DMEM high glucose supplemented with 0.1% BSA) are seeded in 90 μL per well into 96-well plates pre-coated with poly-D-lysine (0.1 mg/mL in PBS/O). After 24 h incubation at 37° C. and 5% CO2, dose-response effects are determined with 3-fold serial compound dilutions, starting at 10 μM. The final vehicle concentration is 0.1% DMSO in all wells. Following pre-incubation with compounds for 1 h, receptor phosphorylation is triggered by a 10 min exposure to 1.0 ng/μL IGF for Hek293-IGF1R cells, and 5.0 ng/μL insulin for Hek293-InsR cells. […] Target phosphorylation is then assessed by transferring volumes corresponding to approx. 6 μg Hek293-IGF1R or 0.6 μg Hek293-InsR lysates to MSD assay plates pre-coated with total-IGF1R or total-InsR Abs, respectively. […] Immune complexes are detected by a SULFO-Tag™-coupled anti-rabbit IgG antibody in the presence of 150 μL MSD read-buffer. Light emission at 620 nm triggered by application of electric current is recorded on a MSD Sectorlmager 6000. […] IC50 values [nM] are determined using 4-parametric curve-fitting (XLfit software, V4.3.2).

Compound: Nc1ncnc2c1c(-c1cc(OC[C@@H]3CCCO3)ccc1F)cn2[C@H]1C[C@@H](N2CC[S+]([O-])CC2)C1 [Example 11, 5-{2-Fluoro-5-[(S)-1-(tetrahydro-furan-2-yl)methoxy]-phenyl}-7-[cis-3-(1-oxo-1-thiomorpholin-4-yl)-cyclobutyl]-7H-pyrrolo[2,3-d]pyrimidin-4-ylamine]
- IC50: 92 nM

Compound: Nc1ncnc2c1c(-c1cc(OC[C@H]3CCCO3)ccc1F)cn2[C@H]1C[C@@H](N2CC[S+]([O-])CC2)C1 [Example 20, 5-{2-Fluoro-5-[(R)-1-(tetrahydro-furan-2-yl)methoxyl]-phenyl}-7-[cis-3-(1-oxo-1-thiomorpholin-4-yl)-cyclobutyl]-7H-pyrrolo[2,3-d]pyrimidin-4-ylamine]
- IC50: 198 nM
